Data from patent publication US8895585B2, “Nicotinamide derivative or salt thereof” (FUJIFILM Corporation, priority 2010, dated 2014).
Where two headings read alike, the source gives them in different places.

Legend:
[1] = system: THP-1 cells; test: Antibody-dependent phagocytosis assay; conditions: read-out: IC50 upon phagocytosis inhibition, THP-1 cells induced to differentiate with IFNγ, opsonized Escherichia coli, Table 23
Description: THP-1 cells (2×10^5 cells/ml) which are human monocyte-like cell line were cultured in the presence of 10 ng/ml IFNγ for 2 days, so that the cells were induced to differentiate into macrophage-like cells. THP-1 cells that had been induced to differentiate were collected. The cells (5×10^4 cells/well) were reacted with test compounds having given concentrations at room temperature for 30 minutes. Thereafter, Escherichia coli (Life Technologies) labeled with a pH-sensitive dye (pHrodo) was subjected to opsonization using an anti-Escherichia coli antibody (Molecular Probes). Then, the resultant was added to THP-1 cells mixed with test compounds that had been induced to differentiate, followed by incubation at 37° C. for 3 hours. At the time of addition of opsonized Escherichia coli, cell-permeable fluorescent dye (Calcein AM) were simultaneously added thereto, and phagocytosis of opsonized Escherichia coli in viable cells was quantitatively determined using an IN Cell Analyzer.
In addition, the following are used in Table 23 to denote standards for evaluating IC50 upon phagocytosis inhibition. • A: Up to 1 μM • B: 1 to 3 μM • C: 3 to 6 μM

[2] = molecular target: glutathione S-transferase (GST)-fused full-length human Syk protein (Homo sapiens, UniProt P43405); test: Syk enzyme assay
Description: A glutathione S-transferase (GST)-fused full-length human Syk protein (Carna Biosciences), which had been generated using a Baculovirus expression system, was used in the Syk enzyme assay.
15 μl of a reaction solution (1.2 ng Syk, 20 mM HEPES, 10 mM MgCl2, 50 mM NaCl, 2 mM DTT, 0.05% BSA, pH 7.0) containing a Syk protein and a predetermined concentration of a test compound was shaken for 2 minutes, and it was then left at rest at room temperature for 13 minutes. Thereafter, 5 μl of Biotin-EDPDYEWPSA-NH2 (final concentration: 0.4 μM) serving as a substrate peptide and 5 μl of ATP (final concentration: 27 μM) were added to the reaction solution, and the obtained mixture was then shaken for 2 minutes. The reaction solution was further left at rest at room temperature for 40 minutes, so as to carry out an enzyme reaction.
Thereafter, 50 μl of a reaction termination solution [5 μg/ml Streptavidin, 0.18 μg/ml PT66-K, 30 mM HEPES (pH 7.0), 150 mM KF, 75 mM EDTA, 0.15% BSA, 0.075% Tween20], which contained Streptavidin-Xlent (Cisbio) and Mab PT66-K (Cisbio), was added to the reaction solution to terminate the enzyme reaction. At the same time, the reaction solution was left at rest at room temperature for 1 hour, so as to carry out an antigen-antibody reaction. Thereafter, using EnVision (PerkinElmer), the time-resolved fluorescence was measured at 615 nm and 665 nm, so that the phosphorylation of the substrate peptide was measured.
In addition, the following are standards for evaluating IC50 of Syk-inhibitory activity used in Table 21. • A: Up to 10 nM • B: 10 to 50 nM • C: 50 to 100 nM • D: 100 to 1000 nM The set of numbers (XYZ-xyz) given in each Example number column indicates the corresponding Example number (Example XYZ-xyz) in Table 21.

[3] = system: THP-1 cells; test: TNFα generation assay; assay type: cell-based, human
Description: THP-1 cells (2×10^5 cells/ml), which were human monocytoid cells, were cultured in the presence of 10 ng/ml IFN-γ (Roche) for 2 days, so that the cells were induced to differentiate into macrophage-like cells. The differentiation-induced THP-1 cells were recovered, and the cells (1×10^6 cell/ml) were then allowed to react with a predetermined concentration of test compound at room temperature for 30 minutes. On the other hand, 100 μl of human IgG (10 μg/ml, SIGMA-ALDRICH) diluted with PBS was added to a 96-well plate, and it was then incubated at room temperature overnight. Thereafter, the resultant was washed with PBS twice to produce a human IgG-coated plate. Subsequently, a cell solution that contained a compound was inoculated on the human IgG-coated plate (5×10^4 cells/well), and it was then cultured for 7 hours. Thereafter, the cultured solution was recovered, and the amount of TNFα secreted into the culture solution was then measured by the ELISA method (Roche/R & D Systems) or the AlphaLISA method (PerkinElmer).
In addition, the following are used in Table 22 to denote criteria for evaluating IC50 in TNFα generation assay. • A: Up to 65 nM • B: 65 to 130 nM • C: 130 to 200 nM

[4] = read-out: IC50 of Syk-inhibitory activity, Test Example 1
[5] = read-out: IC50 of Syk-inhibitory activity, Test Example 1, tested form: HCl
[6] = read-out: IC50 in TNFα generation assay, Table 22
[7] = read-out: IC50 in TNFα generation assay, Table 22, tested form: HCl

SMILES | IC50 [1] | IC50 [2, 4] | IC50 [2, 5] | other results
COc1cc(Nc2nc(N[C@@H]3CCCC[C@@H]3N)c(F)cc2C(N)=O)cc(OC)c1 | < 1000 nM | < 10 nM |  | 
NC(=O)c1cc(F)c(N[C@@H]2CCCC[C@@H]2N)nc1Nc1cc(Cl)cc(Cl)c1 | 3000 to 6000 nM | < 10 nM |  | 
COc1cc(Nc2nc(N[C@@H]3CCCC[C@@H]3N)c(F)cc2C(N)=O)cc(OC)c1 (relative stereo) |  |  | < 10 nM | IC50 ([1]; tested form: HCl): 1000 to 3000 nM
Cc1nc2ccc(Nc3nc(N[C@@H]4CCCC[C@@H]4N)c(F)cc3C(N)=O)cc2s1 (relative stereo) | 1000 to 3000 nM | < 10 nM |  | 
Cc1nn(C)c2ncc(Nc3nc(N[C@@H]4CCCC[C@@H]4N)c(F)cc3C(N)=O)cc12 (relative stereo) | 3000 to 6000 nM | 10 to 50 nM |  | IC50 [3, 6]: 65 to 130 nM
Cn1ncc2cc(Nc3nc(N[C@@H]4CCCC[C@@H]4N)c(F)cc3C(N)=O)ccc21 (relative stereo) | 1000 to 3000 nM | < 10 nM |  | IC50 [3, 6]: < 65 nM
NC(=O)c1cc(F)c(N[C@@H]2CCCC[C@@H]2N)nc1Nc1ccc2[nH]ncc2c1 (relative stereo) |  |  | < 10 nM | IC50 ([1]; tested form: HCl): 1000 to 3000 nM; IC50 [3, 7]: 65 to 130 nM
NC(=O)c1cc(F)c(N[C@@H]2CCCC[C@@H]2N)nc1Nc1ccc2c(c1)OCO2 (relative stereo) | 1000 to 3000 nM | < 10 nM |  | 
NC(=O)c1cc(F)c(N[C@@H]2CCCC[C@@H]2N)nc1Nc1cccc(-n2nccn2)c1 (relative stereo) | 1000 to 3000 nM | < 10 nM |  | 
NC(=O)c1cc(F)c(N[C@@H]2CCCC[C@@H]2N)nc1Nc1cccc2ncccc12 (relative stereo) | 1000 to 3000 nM | < 10 nM |  | 
Cc1cncc(Nc2nc(N[C@@H]3CCCC[C@@H]3N)c(F)cc2C(N)=O)c1 (relative stereo) [Example 6-49, 6-(cis-2-aminocyclohexylamino)-5-fluoro-2-(5-methylpyridin-3-ylamino)nicotinamide] | 3000 to 6000 nM | < 10 nM |  | 
Cc1nc2ccc(Nc3nc(NCCN)c(F)cc3C(N)=O)cc2s1 [Example 6-21, 6-((2-aminoethyl)amino)-5-fluoro-2-((2-methylbenzo[d]thiazol-6-yl)amino)nicotinamide] |  |  | 10 to 50 nM | IC50 ([1]; tested form: HCl): 1000 to 3000 nM
NCCNc1nc(Nc2ccc3ncccc3c2)c(C(N)=O)cc1F [Example 6-26, 6-((2-aminoethyl)amino)-5-fluoro-2-(quinolin-6-ylamino)nicotinamide] |  |  | < 10 nM | IC50 [3, 7]: < 65 nM
NCCNc1nc(Nc2ccc3ncsc3c2)c(C(N)=O)cc1F [Example 6-44, 6-(2-aminoethylamino)-2-((benzo[d]thiazol-6-yl)amino)-5-fluoro-nicotinamide] |  |  |  | IC50 ([2]; read-out: IC50 of Syk-inhibitory activity, Test Example 1, tested form: TFA salt): 10 to 50 nM; IC50 ([3]; read-out: IC50 in TNFα generation assay, Table 22, tested form: TFA salt): < 65 nM
NCCNc1nc(Nc2cnc3ccccc3c2)c(C(N)=O)cc1F [Example 8-11, 6-(2-aminoethylamino)-5-fluoro-2-(quinolin-3-ylamino)nicotinamide] |  |  | 10 to 50 nM | IC50 [3, 7]: 65 to 130 nM
CC(C)C[C@H](N)CNc1nc(Nc2ccc3ncccc3c2)c(C(N)=O)cc1F [Example 14-10, 6-(((2S)-2-amino-4-methylpentyl)amino)-5-fluoro-2-(quinolin-6-ylamino)nicotinamide] |  |  | 10 to 50 nM | IC50 [3, 7]: 65 to 130 nM
